# Source: patent publication US20040127577A1, “Use of rasagiline with or without riluzole to treat amyotrophic lateral sclerosis” (priority 2002, published 2004)
# System: SOD1 transgenic mice
# Conditions: riluzole 30 mg/kg per day, drinking water from 60 days of age, N=15
# Procedure: Another group of 15 mice served as controls.
# The drugs were administered by drinking water starting at 60 days of age. The daily dosages were calculated based on a daily water intake of 6 ml. Fresh solutions were prepared once a week with the total consumed volume measured in order to ensure a constant daily and weekly dose. […] The study was done blindly, meaning that the treatment and the preparation of the drugs were conducted by separate individuals.
# The clinical condition of the mice was monitored daily starting at 40 days. The onset of clinical signs was scored by examining the mice for tremors and/or shaking of the limbs, and the position of one or both hind limbs (hanging rather than splaying out) when the mice were suspended in the air by their tail. The age of clinical onset was determined by the age (days) at which loss of splay or tremors of hind limbs were observed. Examining the mice for the loss of righting reflex determined the end stage of the disease. […] The treatment and clinical evaluation were conducted by separate individuals, and thus the neurological signs for determining onset and end stage of disease were scored in a blinded manner.
# Data are expressed as the mean +/−standard error of the mean (SEM). […] Survival data were analysed by the Mantel-Cox proportional hazard model. […]
compound,measurement,value
"Nc1nc2ccc(OC(F)(F)F)cc2s1 [riluzole, 2-amino-6-trifluoromethoxy benzothiazole]",Mean Survival,234 days and 233.6 days and 233.6000 days

# “And” between values parts separate entries of the source, which are not always exact repeats. Identical values can stand only once.
